Only a part is listed here, and it is no random draw. Some tests of the compounds listed are not included; inactive here does not mean inactive elsewhere. Inconclusive results are not listed. Calls of active or inactive are those of the source. The call rests on the fitted dose curve; in most records, active means well fitted activation curve with a large enough effect; inconclusive means small, poorly fitted or top-dose-only effect; inactive means no such curve, though single readings can be large or run the other way.
test: A quantitative high throughput screen for small molecules that induce DNA re-replication in SW480 colon adenocarcinoma cells.; further: % of control where 0% means no effect; nearly all actives have a fitted effect of over 55% in size; conditions: Hoechst DNA content imaging, 48 h; at 46.1 µM (top of the series)

Q: Which re-replication activation does the source give for `CC(C)Oc1ccc(C(=O)NCC2(N(C)C)CCCCC2)cc1` here?
A: Its re-replication activation is inactive: -0.0097%.

Q: Which re-replication activation does the source give for `CN(C)c1cccc(C(=O)NCC2(N(C)C)CCCCC2)c1` here?
A: The re-replication activation was inactive: -5.92%.

Q: For `COc1ccc(Br)c(C(=O)NCC2(N3CCCCC3)CCCCC2)c1`, which re-replication activation is on record?
A: The re-replication activation was inactive: 13%.

Q: Which re-replication activation does the source give for `O=C(OC1CN2CCC1CC2)C(CO)(c1ccccc1)c1ccccc1` (stereo not given) here?
A: Its re-replication activation is inactive: -9.25%.

Q: For `O=C(NCC1(N2CCCCC2)CCCCC1)c1cccc(Cl)c1`, which re-replication activation is on record?
A: Its re-replication activation is inactive: 0.641%.

Q: For `COc1cccc(C(=O)NCC2(N3CCCCC3)CCCCC2)c1`, which re-replication activation is on record?
A: Its re-replication activation is inactive: -3.72%.

Q: With `COc1ccc(Cl)cc1C(=O)NCC1(N(C)C)CCCCC1` as the compound, how does the re-replication activation read?
A: The re-replication activation was inactive: -2.79%.

Q: Which re-replication activation does the source give for `COc1cc(C(=O)NCC2(N(C)C)CCCCC2)c([N+](=O)[O-])cc1OC` here?
A: The re-replication activation was inactive: -6.45%.

Q: Which re-replication activation does the source give for `CN(C)C1(CNC(=O)c2ccc(Br)cc2)CCCCC1` here?
A: The re-replication activation was inactive: 3.24%.

Q: With `COc1ccc(C(=O)NCC2(N(C)C)CCCCC2)cc1` as the compound, how does the re-replication activation read?
A: Its re-replication activation is inactive: -10.6%.

Q: Which re-replication activation does the source give for `Cc1cc(C(=O)NCC2(N3CCCCC3)CCCCC2)ccc1[N+](=O)[O-]` here?
A: Its re-replication activation is inactive: -5.66%.

Q: For `CCN1CCCC(OC(=O)C2(O)c3ccccc3C=Cc3ccccc32)C1` (stereo not given), which re-replication activation is on record?
A: Its re-replication activation is inactive: 14.8%.

Q: For `O=C(NCC1(N2CCCCC2)CCCCC1)c1cccc(Br)c1`, which re-replication activation is on record?
A: The re-replication activation was inactive: -2.74%.

Q: Which re-replication activation does the source give for `C=CCN1CCN(CCOC(=O)C(O)(c2ccccc2)c2ccccc2)CC1` here?
A: The re-replication activation was inactive: -9.3%.

Q: Which re-replication activation does the source give for `O=C(NCC1(N2CCCCC2)CCCCC1)c1cc(F)c(F)cc1Cl` here?
A: The re-replication activation was inactive: -1.42%.

Q: Which re-replication activation does the source give for `CN1CCCC(OC(=O)C(O)(c2ccccc2)c2ccccc2)C1` (stereo not given) here?
A: Its re-replication activation is inactive: 3.93%.

Q: With `Cc1ccccc1C(=O)NCC1(N2CCCCC2)CCCCC1` as the compound, how does the re-replication activation read?
A: Its re-replication activation is inactive: -3.59%.

Q: Which re-replication activation does the source give for `CN(C)C1CCCC1OC(=O)C(O)(c1ccccc1)c1ccccc1` (stereo not given) here?
A: The re-replication activation was inactive: -2.46%.

Q: For `CN(C)c1ccc(C(=O)NCC2(N(C)C)CCCCC2)cc1`, which re-replication activation is on record?
A: Its re-replication activation is inactive: -3.18%.

Q: For `Cc1ccc(C(=O)NCC2(N3CCCCC3)CCCCC2)cc1`, which re-replication activation is on record?
A: Its re-replication activation is inactive: -1.17%.

Q: Which re-replication activation does the source give for `CCN(CC)CC(C)C(C)OC(=O)C(O)(c1ccccc1)c1ccccc1` (stereo not given) here?
A: The re-replication activation was inactive: -1.08%.

Q: For `COc1cc(SC)ccc1C(=O)NCC1(N(C)C)CCCCC1`, which re-replication activation is on record?
A: Its re-replication activation is inactive: -2.56%.

Q: Which re-replication activation does the source give for `CC(C)N1C(=O)CC2(CCN(CCOC(=O)C(O)(c3ccccc3)c3ccccc3)CC2)C1=O` here?
A: The re-replication activation was inactive: -6.42%.

Q: Which re-replication activation does the source give for `CN1[C@@H]2CC[C@H]1CC(OC(=O)C(O)(c1ccccc1)c1ccccc1)C2` (stereo not given in full) here?
A: Its re-replication activation is inactive: -3.91%.

Q: With `O=C(NCC1(N2CCCCC2)CCCCC1)c1cc([N+](=O)[O-])ccc1Cl` as the compound, how does the re-replication activation read?
A: Its re-replication activation is inactive: 2.88%.

Reference: PubChem BioAssay AID624297 (National Center for Advancing Translational Sciences (NCATS), 2012)
